# Results as given in PMC11986510, “Duplexed CeTEAM drug biosensors reveal determinants of PARP inhibitor selectivity in cells” (The Journal of Biological Chemistry, 2025).
# Sequences of proteins named here, by UniProt entry; tags and fusion partners are left off. A line that says so, or that is headed by a name, gives the form on record, which may keep a tag or linker.
# UniProt Q9UGN5, other isoform, or with tags, fused parts or gaps L269A: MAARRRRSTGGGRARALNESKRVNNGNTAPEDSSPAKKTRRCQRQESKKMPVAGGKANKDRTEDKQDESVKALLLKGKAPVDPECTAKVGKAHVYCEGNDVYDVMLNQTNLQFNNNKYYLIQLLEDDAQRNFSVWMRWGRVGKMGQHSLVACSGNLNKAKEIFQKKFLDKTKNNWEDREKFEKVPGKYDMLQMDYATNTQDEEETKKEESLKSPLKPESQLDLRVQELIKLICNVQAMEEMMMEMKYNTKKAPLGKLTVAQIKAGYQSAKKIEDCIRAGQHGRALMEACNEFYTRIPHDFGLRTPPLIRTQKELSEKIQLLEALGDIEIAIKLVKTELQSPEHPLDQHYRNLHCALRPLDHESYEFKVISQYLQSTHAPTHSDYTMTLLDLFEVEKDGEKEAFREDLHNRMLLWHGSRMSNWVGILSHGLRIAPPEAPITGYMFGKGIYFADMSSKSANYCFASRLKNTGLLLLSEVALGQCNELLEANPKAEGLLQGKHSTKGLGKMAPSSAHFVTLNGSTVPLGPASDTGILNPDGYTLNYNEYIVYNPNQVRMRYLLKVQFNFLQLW
# Target: PARP2 L269A-mCherry (Homo sapiens, UniProt Q9UGN5, L282A)
# Type: cell-based
# Conditions: CeTEAM stabilization, live U-2 OS dual biosensor cells, 24 h PARPi gradient, n = 3
smiles,measurement,value
CN(C)CC(=O)Nc1ccc2[nH]c(=O)c3ccccc3c2c1 [PJ34],EC50,1470 nM
